≈ marks a conversion by molar mass, not a printed value. Like-named read-outs stand apart in the source and are kept apart here.
Legend:
MAXF 401NL (breast) = conditions: for IC50: Homo sapiens, read-out: IC50 of standard agent alone
LXF 1121L (lung) [1] = conditions: for IC50: Homo sapiens, read-out: IC50 of standard agent alone
LXF 1121L (lung) [2] = system: LXF 1121L (lung)

With O=c1[nH]cc(F)c(=O)[nH]1 [5-FU, 5-fluoro-uracil] the IC50 (MAXF 401NL (breast)) was 139 ng/mL (≈ 1.07 µM) and the IC50 (LXF 1121L (lung) [1]) was 939 ng/mL (≈ 7.22 µM).

For CC[C@@]1(O)C(=O)OCc2c1cc1n(c2=O)Cc2cc3c(CN(C)C)c(O)ccc3nc2-1 [Topotecan, topotecan], the IC50 (LXF 1121L (lung) [2]) was 5 ng/mL (≈ 0.0119 µM).

Compound CCC1=C[C@@H]2CN(C1)Cc1c([nH]c3ccccc13)[C@@](C(=O)OC)(c1cc3c(cc1OC)N(C)[C@H]1[C@@](O)(C(=O)OC)[C@H](OC(C)=O)[C@]4(CC)C=CCN5CC[C@]31[C@@H]54)C2 [Navelbine, navelbine] has an IC50 (LXF 1121L (lung) [2]) of 5 ng/mL (≈ 0.00642 µM).

COc1cccc2c1C(=O)c1c(O)c3c(c(O)c1C2=O)C[C@@](O)(C(=O)CO)C[C@@H]3O[C@H]1C[C@H](N)[C@H](O)[C@H](C)O1 [ADR, adriamycin] gave an IC50 (MAXF 401NL (breast)) of 7 ng/mL (≈ 0.0129 µM) and an IC50 (LXF 1121L (lung) [1]) of 13 ng/mL (≈ 0.0239 µM).

Work on CO[C@@]12[C@H](COC(N)=O)C3=C(C(=O)C(C)=C(N)C3=O)N1C[C@@H]1N[C@@H]12 [Mitomycin, mitomycin-C] yielded an IC50 (LXF 1121L (lung) [2]) of 55 ng/mL (≈ 0.165 µM).

In the case of N.N.[Cl][Pt][Cl] [Cis-Platin, cisplatin], the “IC50 of standard agent alone” value (MAXF 401NL (breast); no Breastin, Exp. GF653) is reported as 1120 ng/mL and the “IC50 of standard agent alone” value (LXF 1121L (lung) [1]; no Breastin, Exp. GF651) is reported as greater than 30000 ng/mL.

In the case of CC(=O)O[C@H]1C(=O)[C@@]2(C)[C@H]([C@H](OC(=O)c3ccccc3)[C@]3(O)C[C@H](OC(=O)[C@H](O)[C@@H](NC(=O)c4ccccc4)c4ccccc4)C(C)=C1C3(C)C)[C@]1(OC(C)=O)CO[C@@H]1C[C@@H]2O [TAXOL, taxol], the IC50 (MAXF 401NL (breast)) is reported as 0.44 ng/mL (≈ 0.000515 µM) and the IC50 (LXF 1121L (lung) [1]) is reported as 1.8 ng/mL (≈ 0.00211 µM).

Source: US20070154573A1 (priority 2005, published 2007)
